The test deals with Myogenin (full length, mouse) (mouse) (UniProt P12979).

With MBP-I-mfc (from UniProt P0AEX9), the Myogenin DNA binding (gel shift, B1/B2 E box probe) (fold molar excess) is 48.

Values taken from patent US5885797.
